Compound activity deposited in PubChem by National Center for Advancing Translational Sciences (NCATS).
This is a sample that favours compounds with a hit; in the whole collection about 16% have one here.
TDP1 block – inhibitors of human tyrosyl-DNA phosphodiesterase TDP1; recombinant TDP1, AlphaScreen DNA substrate cleavage; Potency, µM (highest dose often 130 µM), hits mostly inhibitors; 0.28% of 350,000 active; further: nearly all actives have a fitted effect of over 40% in size
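Recombinant human Tdp1 (E. coli-expressed, 1 nM final) preincubated with compounds 15 min at room temperature, then 5'-biotin/3'-phosphotyrosine-FITC DNA substrate (15 nM final) added for 5 min. AlphaScreen beads (10 ug/ml final) added 10 min; cleavage lowers signal.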
TDP1 cell CPT – DT40-hTDP1 cell growth loss with CPT; AID 686979; 12% of 420,000 active; chicken DT40 Tdp1-/-;hTDP1 cells + 20 nM CPT, ATP luminescence, 48 h; Potency, µM (doses to about 46.2 µM), actives largely listed as inhibitors; further: nearly all actives have a fitted effect of over 55% in size
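Chicken DT40 Tdp1-/- cells stably complemented with human TDP1 were seeded at 400 cells/well in medium containing 20 nM camptothecin, exposed to pin-transferred compounds, and grown at 37 °C for at least 48 hr. Viability was read as ATP luminescence.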
uPA surface inh – cell surface uPA generation inhibition. AID 540303. 0.31% of 330,000 active. Potency, µM (highest dose often 38.3 µM), actives largely listed as inhibitors. cell surface uPA generation assay, qHTS; active means well fitted inhibition curve with a large enough effect; inconclusive means small, poorly fitted or top-dose-only effect; inactive means no such curve, though single readings can be large or run the other way; tested in mouse RAW 264.7 cells; further: nearly all actives have a fitted effect of over 55% in size
TDP1 cell noCPT – qHTS for Inhibitors of human tyrosyl-DNA phosphodiesterase 1 (TDP1): qHTS in cells in absence of CPT | 15% of 420,000 active | DT40 Tdp1-/- hTDP1 cells, no CPT, ATP luminescence, 48 h | AID 686978, 2013 | Potency, µM (doses to about 46.2 µM), actives largely listed as inhibitors; further: nearly all actives have a fitted effect of over 55% in size
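Cells were dispensed at 400 per well, compounds added by pin tool, plates incubated ≥48 hr at 37 °C, then CellTiter-Glo added for 30 min at room temperature before luminescence reading. Line: DT40 Tdp1-/- complemented with hTDP1; camptothecin omitted.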
miR-21 reporter – miR-21 reporter, rising signal | AID 2288 | HeLa miR-21 FLuc reporter, luciferase, 48 h | 340,000 tested, under 10 active | Potency, µM (doses to about 38.3 µM); active = well fitted rising curve with a large enough effect; inconclusive = small, poorly fitted or top-dose-only effect; inactive = no such curve, though single readings can be large or run the other way;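 note: miR-21 action dims this reporter so a rising signal means less miR-21 action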
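HeLa cells stably expressing CMV-driven firefly luciferase with a downstream miR-21 binding sequence, endogenously expressing miR-21, were treated with titrations (up to about 40uM final) for 48 hours at 37 degree Celsius. Luciferase luminescence was read after lysis.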
Of the large screens only hits and unclear results are named; the others gave an inactive call. Unless noted, the call rests on the fitted dose curve; in most records, active means well fitted curve in the direction sought with a large enough effect; inconclusive means small, poorly fitted or top-dose-only effect, or another doubt; inactive means no such curve, though single readings can be large; an effect the other way counts as inactive or inconclusive.

Cc1ccc(NS(=O)(=O)c2cc3[nH]c(=O)c(=O)[nH]c3cc2C)c(C)c1	none (no result: TDP1 block)
CCCCCC1CCC(c2ccc(/C(N)=N/O)cc2)CC1 (stereo not drawn)	TDP1 cell CPT 15µM, TDP1 cell noCPT 8.2µM (no result: TDP1 block)
Cc1ccc(-n2nc(C)c3c(C)c(CCC(=O)Nc4ccc(CN5CCCC5)cc4)c(C)nc32)cc1	TDP1 cell CPT inconclusive, TDP1 cell noCPT 12µM (no result: TDP1 block)
COC(CNC(=O)CCc1c(C)nc2c(c(C)nn2-c2ccc(C)cc2)c1C)OC	TDP1 cell CPT inconclusive, TDP1 cell noCPT inconclusive (no result: TDP1 block)
CC(=O)c1ccc(NC(=O)CCc2c(C)nc3c(c(C)nn3-c3ccc(C)cc3)c2C)cc1	TDP1 cell CPT inconclusive, TDP1 cell noCPT 7.3µM (no result: uPA surface inh)
Cc1ccc(-n2nc(C)c3c(C)c(CCC(=O)NCCCOC(C)C)c(C)nc32)cc1	TDP1 cell CPT 23µM, TDP1 cell noCPT inconclusive (no result: TDP1 block)
Cc1nnc(NC(=O)C(C)Sc2nnc(CNC(=O)c3ccccc3F)n2C)s1 (stereo not drawn)	none (no result: miR-21 reporter)
O=C(CSc1nnc(-c2ccc(S(=O)(=O)N3CCCC3)cc2)o1)NCc1ccccc1	TDP1 cell CPT 23µM, TDP1 cell noCPT 18µM
Cc1ccc(-c2nnc(SCC(=O)NCc3ccccc3)o2)cc1	TDP1 cell CPT inconclusive, TDP1 cell noCPT inconclusive (no result: uPA surface inh)
Cn1c(N)c(C(=O)COC(=O)c2ncc(Cl)c(Cl)c2Cl)c(=O)n(C)c1=O	none
CCCCNC(=O)c1nc(-c2cccnc2OC)oc1-c1ccc(Cl)cc1	TDP1 cell CPT 16µM, TDP1 cell noCPT 23µM (no result: TDP1 block, uPA surface inh, miR-21 reporter)
CCCCNC(=O)c1nc(-c2cccc(C(F)(F)F)c2)oc1-c1ccc(OC(F)(F)F)cc1	TDP1 cell noCPT inconclusive (no result: TDP1 block, uPA surface inh, miR-21 reporter)
COc1cccc(N2CCN(Cc3ccsc3)CC2)c1	TDP1 cell noCPT inconclusive
Cn1cc(S(=O)(=O)N2CCCCC2)cc1C(=O)Nc1ccc(OC(F)(F)F)cc1	none (no result: uPA surface inh)
O=C(Nc1ccccc1)Nc1ccc(Br)cc1F	TDP1 cell CPT 15µM, TDP1 cell noCPT 21µM
O=C(Nc1cccc(F)c1)Nc1cccc(Cl)c1	TDP1 cell CPT inconclusive, TDP1 cell noCPT inconclusive (no result: TDP1 block)
O=C(Nc1cccc(Cl)c1)Nc1ccc(Br)cc1F	TDP1 cell CPT 21µM, TDP1 cell noCPT 12µM
CC(C)c1ccc(NC(=O)CC2Oc3ccccc3NC2=O)cc1 (stereo not drawn)	none
O=C(O)c1cscc1Cc1cccs1	none (no result: TDP1 block, uPA surface inh, miR-21 reporter)
CCC(O)c1nc2ccccc2n1Cc1cccc(Cl)c1 (stereo not drawn)	TDP1 cell CPT inconclusive, TDP1 cell noCPT 18µM (no result: uPA surface inh)
CCC(C)Cn1c(C)nc2ccccc21 (stereo not drawn)	TDP1 cell CPT inconclusive, TDP1 cell noCPT 10µM
CCC(C)Cn1c(COc2ccc(OC)cc2)nc2ccccc21 (stereo not drawn)	TDP1 cell CPT inconclusive, TDP1 cell noCPT inconclusive (no result: uPA surface inh)
Cc1nc2ccccc2n1Cc1ccccc1	TDP1 cell CPT 16µM, TDP1 cell noCPT inconclusive (no result: TDP1 block)
Cc1nc([N+](=O)[O-])c(Sc2nc3ccccc3n2C)n1Cc1ccccc1	TDP1 cell CPT inconclusive, TDP1 cell noCPT 5.2µM, miR-21 reporter inconclusive
Cc1nc([N+](=O)[O-])c(SCC(N)=O)n1Cc1ccccc1	uPA surface inh inconclusive, TDP1 cell noCPT inconclusive
NC(=O)c1ccc(NC(=O)COC(=O)c2ccc3c(c2)OCCO3)cc1	TDP1 cell noCPT inconclusive (no result: TDP1 block)
c1ccc(Cc2nc3ccccc3n2Cc2ccccc2)cc1	TDP1 cell noCPT inconclusive
Cc1nc(Br)c(Br)n1Cc1ccccc1	TDP1 cell CPT inconclusive, TDP1 cell noCPT 21µM (no result: TDP1 block, uPA surface inh, miR-21 reporter)
S=c1[nH]nc(-c2ccc(Br)cc2)n1Cc1ccccc1	TDP1 cell CPT inconclusive, TDP1 cell noCPT inconclusive
Cc1nc2ccccc2n1Cc1ccc(Br)cc1	TDP1 cell CPT 5.8µM, TDP1 cell noCPT 6.5µM (no result: TDP1 block, miR-21 reporter)
CC(c1nc2ccccc2n1Cc1ccccc1)N1CCCCC1 (stereo not drawn)	TDP1 cell CPT 16µM, TDP1 cell noCPT 18µM (no result: TDP1 block)
Cc1cccc(Cn2c(-c3cccc(Br)c3)nc3ccccc32)c1	TDP1 cell CPT 18µM, TDP1 cell noCPT 16µM (no result: uPA surface inh)
c1ccc(-c2csc(Nc3ncccn3)n2)cc1	TDP1 cell CPT inconclusive, TDP1 cell noCPT inconclusive
COc1cc(OC)nc(Nc2nc(C(N)c3ccccc3Cl)cs2)n1 (stereo not drawn)	TDP1 cell CPT inconclusive, TDP1 cell noCPT 26µM (no result: TDP1 block, uPA surface inh, miR-21 reporter)
NC(c1csc(Nc2ncccn2)n1)c1ccccc1Cl (stereo not drawn)	TDP1 cell CPT 21µM, TDP1 cell noCPT 21µM (no result: TDP1 block, uPA surface inh, miR-21 reporter)
COc1cccc(Nc2nc(C(N)c3ccccc3Cl)cs2)n1 (stereo not drawn)	TDP1 cell CPT 21µM, TDP1 cell noCPT 15µM (no result: TDP1 block, uPA surface inh, miR-21 reporter)
COc1cc(OC)nc(NC(=O)NS(=O)(=O)c2ccccc2Cl)n1	none
COc1ccc(CNC(=O)COC(=O)c2cc(-c3ccco3)nc3ccccc23)cc1	none (no result: TDP1 cell CPT, uPA surface inh, TDP1 cell noCPT)
COc1ccc2nc(SCC(=O)Nc3cc(C)on3)[nH]c2c1	none (no result: uPA surface inh)
COc1ccc2c(c1)C(=O)CC(O)(C(F)F)O2 (stereo not drawn)	none
